Values of other authors in patent US10231995B2, “Selenium-containing compositions and uses thereof” (SELO MEDICAL GMBH, priority 2001, dated 2019).

System: animals

[Se] [selenium]
selenium content of animal feed at which symptoms of intoxication occur: 5 to 10 μg selenium/g
